Experiments:
[1] = literature compounds; cited from earlier work
CB1R = CB1R (Homo sapiens, UniProt P21554); test: CB1R radioligand displacement binding assay (CP55940 radioligand); details: Table 1, read-out: CB1_KI_CP
Method: Heterologous competition binding assays were performed to calculate receptor affinities. Unlabeled SR141716 or SR144528 were used as appropriate controls for non-specific binding (NSB) in the assay. Calculation of the equilibrium dissociation constant (Ki) was performed using the Cheng-Prusoff equation.

Protein sequences, listed by entry. Tags and fused reporters are not part of them.
UniProt P21554, whole entry: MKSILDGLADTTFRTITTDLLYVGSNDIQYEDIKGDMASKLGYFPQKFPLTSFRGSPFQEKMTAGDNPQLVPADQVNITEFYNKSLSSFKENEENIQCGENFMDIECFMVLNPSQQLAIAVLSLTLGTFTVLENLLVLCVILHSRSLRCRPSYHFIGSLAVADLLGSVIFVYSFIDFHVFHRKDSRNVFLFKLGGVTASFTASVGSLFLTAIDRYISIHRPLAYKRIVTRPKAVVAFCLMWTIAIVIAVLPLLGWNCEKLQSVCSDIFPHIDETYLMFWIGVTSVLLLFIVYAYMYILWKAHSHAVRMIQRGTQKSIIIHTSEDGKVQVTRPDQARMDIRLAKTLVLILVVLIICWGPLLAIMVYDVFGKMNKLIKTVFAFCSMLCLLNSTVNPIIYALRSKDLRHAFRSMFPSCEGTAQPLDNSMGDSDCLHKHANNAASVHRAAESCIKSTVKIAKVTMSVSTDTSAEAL

Compound	brain/plasma concentration ratio [1]	Ki (CB1R) [nM]
CCOc1ccc(Cc2nc3cc(N(C)S(=O)(=O)c4cccs4)ccc3n2CC2CCCCC2)nc1 [AstraZeneca compound]	~0.05	–
CCCCCOc1ccc(C(=O)c2cccc3ccccc23)c2ccccc12 [Compound 69, (naphthalen-1-yl)[4-(pentyloxy)naph-thalen-1-yl]methanone, reference compound]	–	17

From patent publication US9656981B2, “Peripherally-acting cannabinoid receptor agonists for chronic pain” (The Regents of the University of California, priority 2012, dated 2017)
